Test results published in patent US7241770B2 (priority 2003, dated 2007).

Experiments:
human μ-opiate receptor = human μ-opiate receptor (Homo sapiens, UniProt P35372); test: Affinity for μ-opiate receptors, [3H]-DAMGO receptor binding assay on CHO cell membranes; settings: human μ-opiate receptor in CHO membranes
human ORL1 receptor = human ORL1 receptor (Homo sapiens, UniProt P41146); test: Affinity for human ORL1 receptors, [3H]-nociceptin receptor binding assay on CHO cell membranes; settings: human ORL1 receptor in CHO membranes

Structure (SMILES)	affinity μ-opiate pKi (human μ-opiate receptor)	affinity ORL1 pKi (human ORL1 receptor)
CN(CCC(=O)c1ccccc1)CCN1CN(c2ccccc2)C2(CCN(CCC3CCC4CC3C4(C)C)CC2)C1=O (stereo not drawn)	7.0	8.0
CN(CCN1CN(c2ccccc2)C2(CCN(CCC3CCC4CC3C4(C)C)CC2)C1=O)C(c1cccs1)C(O)C(O)C(O)CO (stereo not drawn)	7.4	8.1
CN(CCN1CN(c2ccccc2)C2(CCN(CCC3CCC4CC3C4(C)C)CC2)C1=O)CCn1c(=O)[nH]c2ccccc2c1=O (stereo not drawn)	7.0	7.9
CN(CCN1CN(c2ccccc2)C2(CCN(CCC3CCC4CC3C4(C)C)CC2)C1=O)C(=O)Nc1cccc(Cl)c1 (stereo not drawn)	7.1	8.2
CN(CCN1CN(c2ccccc2)C2(CCN(CCC3CCC4CC3C4(C)C)CC2)C1=O)C(=O)Nc1ccccc1Br (stereo not drawn)	7.1	7.9
CN(CCCN1CN(c2ccccc2)C2(CCN(CCC3CCC4CC3C4(C)C)CC2)C1=O)C(c1cccs1)C(O)C(O)C(O)CO (stereo not drawn)	7.4	8.1
CNCCCCN1CN(c2ccccc2)C2(CCN(CCC3CCC4CC3C4(C)C)CC2)C1=O (stereo not drawn) [Example 14]	7.2	9.2
CN(CCN1CN(c2ccccc2)C2(CCN(CCC3CCC4CC3C4(C)C)CC2)C1=O)Cc1ccc2ccccc2c1 (stereo not drawn)	6.7	8.2
CN(CCCCCN1CN(c2ccccc2)C2(CCN(CCC3CCC4CC3C4(C)C)CC2)C1=O)CC1(O)CCNCC1 (stereo not drawn)	7.2	9.4
CCOC(=O)C(C)NC(=O)N(C)CCN1CN(c2ccccc2)C2(CCN(CCC3CCC4CC3C4(C)C)CC2)C1=O (stereo not drawn)	6.9	8.0
CN(CCN1CN(c2ccccc2)C2(CCN(CCC3CCC4CC3C4(C)C)CC2)C1=O)C(=O)Nc1ccc(-c2ccccc2)cc1 (stereo not drawn)	6.8	7.7
CN(CCCCCCN1CN(c2ccccc2)C2(CCN(CCC3CCC4CC3C4(C)C)CC2)C1=O)C1CCCCC1O (stereo not drawn)	7.6	8.3
CC1(C)C2CCC(CCN3CCC4(CC3)C(=O)N(CCN3CCC(O)(c5ccc(Cl)c(C(F)(F)F)c5)CC3)CN4c3ccccc3)C1C2 (stereo not drawn)	7.7	9.2
CN(CCCN1CN(c2ccccc2)C2(CCN(CCC3CCC4CC3C4(C)C)CC2)C1=O)c1ccccn1 (stereo not drawn)	7.8	8.6
CN(CCN1CN(c2ccccc2)C2(CCN(CCC3CCC4CC3C4(C)C)CC2)C1=O)C(=O)Nc1ccccc1F (stereo not drawn)	7.1	7.9
CN(CCN1CN(c2ccccc2)C2(CCN(CCC3CCC4CC3C4(C)C)CC2)C1=O)C(c1ccco1)C(O)CO (stereo not drawn) [Example 51]	7.9	9.1
CN(CCN1CN(c2ccccc2)C2(CCN(CCC3CCC4CC3C4(C)C)CC2)C1=O)C(=O)Nc1ccc(Oc2ccccc2)cc1 (stereo not drawn)	7.0	8.1

Structure (SMILES)	affinity μ-opiate pKi (human μ-opiate receptor)	affinity ORL1 pKi (human ORL1 receptor)
COc1cccc(CN2CCC(O)(CN(C)CCCN3CN(c4ccccc4)C4(CCN(CCC5CCC6CC5C6(C)C)CC4)C3=O)CC2)c1 (stereo not drawn)	7.4	8.2
CN(CCN1CN(c2ccccc2)C2(CCN(CCC3CCC4CC3C4(C)C)CC2)C1=O)Cc1ccncc1 (stereo not drawn)	7.4	8.1
CN(CCN1CN(c2ccccc2)C2(CCN(CCC3CCC4CC3C4(C)C)CC2)C1=O)C(=O)Nc1cc(C(F)(F)F)cc(C(F)(F)F)c1 (stereo not drawn)	6.9	7.8
CN(CCCN1CN(c2ccccc2)C2(CCN(CCC3CCC4CC3C4(C)C)CC2)C1=O)CC1(O)CCNCC1 (stereo not drawn) [Example 37, 8-[2-(6,6-Dimethyl-bicyclo[3.1.1]hept-2-yl)-ethyl]-3-{3-[(4-hydroxy-piperidin-4-ylmethyl)-methyl-amino]-propyl}-1-phenyl-1,3,8-triaza-spiro[4.5]decan-4-one]	7.7	8.8
CNCCCCCCN1CN(c2ccccc2)C2(CCN(CCC3CCC4CC3C4(C)C)CC2)C1=O (stereo not drawn)	7.4	9.1
CNCCCCCN1CN(c2ccccc2)C2(CCN(CCC3CCC4CC3C4(C)C)CC2)C1=O (stereo not drawn)	7.5	8.5
CN(CCCN1CN(c2ccccc2)C2(CCN(CCC3CCC4CC3C4(C)C)CC2)C1=O)C1CCCCC1O (stereo not drawn)	7.4	8.2
CN(CCN1CN(c2ccccc2)C2(CCN(CCC3CCC4CC3C4(C)C)CC2)C1=O)C(=O)Nc1ccc(Cl)cc1 (stereo not drawn)	7.0	7.9
CCCCOC(=O)c1ccc(NC(=O)N(C)CCN2CN(c3ccccc3)C3(CCN(CCC4CCC5CC4C5(C)C)CC3)C2=O)cc1 (stereo not drawn)	6.8	8.0
CN(CCN1CN(c2ccccc2)C2(CCN(CCC3CCC4CC3C4(C)C)CC2)C1=O)Cc1ccccc1 (stereo not drawn)	7.0	8.6
CN(CCN1CN(c2ccccc2)C2(CCN(CCC3CCC4CC3C4(C)C)CC2)C1=O)C1CCCC1O (stereo not drawn)	7.3	8.0
COc1ccc(NC(=O)N(C)CCN2CN(c3ccccc3)C3(CCN(CCC4CCC5CC4C5(C)C)CC3)C2=O)c(OC)c1 (stereo not drawn)	7.1	8.1
CNCCCN1CN(c2ccccc2)C2(CCN(CCC3CCC4CC3C4(C)C)CC2)C1=O (stereo not drawn) [Example 13, 8-[2-(6,6-Dimethyl-bicyclo[3.1.1]hept-2-yl)-ethyl]-3-(3-methylamino-propyl)-1-phenyl-1,3,8-triaza-spiro[4.5]decan-4-one]	7.4	8.9
CN(CCOc1ccccc1)CCN1CN(c2ccccc2)C2(CCN(CCC3CCC4CC3C4(C)C)CC2)C1=O (stereo not drawn)	6.8	7.6
CN(CCCN1CN(c2ccccc2)C2(CCN(CCC3CCC4CC3C4(C)C)CC2)C1=O)CC(O)C(O)C(O)C(O)CO (stereo not drawn)	7.4	8.1
COC1(CN(C)CCCN2CN(c3ccccc3)C3(CCN(CCC4CCC5CC4C5(C)C)CC3)C2=O)CCNCC1 (stereo not drawn)	8.1	8.5
